Literature values in US20080138790A1 (priority 2004, published 2008).

Test system: rat
Details: in vivo; cited from earlier work

Substance: 1-Butanol
- LD50 (oral-rat): 790 mg/kg
